# The list shows a part of the results, in another mix than the full data. Active and inactive are the calls of the source. Calls follow the shape of the dose curve; as a rule, active = well fitted inhibition curve with a large enough effect; inconclusive = small, poorly fitted or top-dose-only effect; inactive = no such curve, though single readings can be large or run the other way.
# The chains behind the UniProt entries cited, without tags or fusion partners.
# UniProt O75874, whole entry R132H: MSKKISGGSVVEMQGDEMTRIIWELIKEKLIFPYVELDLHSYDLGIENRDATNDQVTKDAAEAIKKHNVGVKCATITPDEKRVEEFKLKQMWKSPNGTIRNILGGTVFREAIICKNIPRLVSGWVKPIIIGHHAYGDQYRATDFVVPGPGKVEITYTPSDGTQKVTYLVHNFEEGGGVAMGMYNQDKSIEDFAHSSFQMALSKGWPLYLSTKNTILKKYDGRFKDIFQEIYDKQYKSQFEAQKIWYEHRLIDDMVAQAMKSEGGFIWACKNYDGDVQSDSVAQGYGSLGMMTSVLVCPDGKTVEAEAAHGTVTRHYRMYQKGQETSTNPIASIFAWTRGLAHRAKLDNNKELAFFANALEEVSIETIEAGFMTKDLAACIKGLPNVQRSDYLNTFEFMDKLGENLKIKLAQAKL
# Target: Isocitrate dehydrogenase [NADP] cytoplasmic (Homo sapiens) (UniProt O75874)
# Assay: qHTS for Inhibitors of mutant isocitrate dehydrogenase 1 (IDH1): qHTS; also: nearly all actives have a fitted effect of over 65% in size
# Settings: IDH1-R132H enzyme, NADPH consumption, diaphorase/resazurin fluorescence; at 76.6 µM (top of the series) unless noted
# Source text: Unbiased genomic sequencing for 22 glioma genomes found recurrent mutation of isocitrate dehydrogenase 1 (IDH1) on chromosome 2q33-a gene encoding the cytosolic isoform of IIDH1associated with the tricarboxylic acid cycle (TCA) that catalyzes the oxidative decarboxylation of isocitrate, yielding alpha-ketoglutarate and CO2 via NADP+ to NADPH conversion. Subsequent studies confirmed the recurrent IDH mutations in up to 70% of secondary gliomas and in 10% of AML cases. […] This in effect defines IDH1 as an oncogene, and provides an extraordinary opportunity to discover chemical probes against mutant IDH1 that may translate into much needed new therapies for glioma and AML patients. […] NIH Chemical Genomics Center [NCGC] NIH Molecular Libraries Probe Centers Network [MLPCN] MLPCN Grant: DA032129 Assay Submitter (PI): Lenny Dang, Agios Pharmaceuticals
# IDH1-R132H (0.5 ug/mL) was dispensed into black, solid-bottom 1536-well plates at 3 uL/well in 20 mM Tris-HCl (pH 7.5), 150 mM NaCl, 10 mM MgCl2, 4 mM beta-ME, and 0.05% protease-free BSA. Then, 23 nL of compounds or DMSO were delivered to each well using a pin tool. A pre-read was run on the Viewlux to identify fluorescent compounds (540 nm excitation filter, 598 nm emission filter, bodipy mirror and 2 second exposure). After 30 minutes of incubation with compound, 3 uL of substrate mix were dispensed (0.016 mM NADPH, 2 mM alpha-KG, 20 mM Tris-HCl (pH 7.5), 150 mM NaCl, 10 mM MgCl2, and 0.05% protease-free BSA). Plates were spun for 1 min at 1000xg and incubated at room temperature for 80 min. Then 1.5 uL of each detection reagent component for the coupling system were added (0.12 mg/mL diaphorase and 0.072 mM resazurin, each in 20 mM Tris-HCl (pH 7.5), 150 mM NaCl, 10 mM MgCl2, and 0.05% protease-free BSA ) The protein, substrate and two detection components were maintained at 4 °C throughout the screen. Additionally, the substrate and resazurin reagents were protected from light. The plates were measured on an Envision plate reader for fluorescence signal using a 540 nm excitation filter and 590 nm emission filter with 10 flashes. 1x and 0x (no-enzyme) IDH1-R132H enzyme control were used to normalize %Activity of identified inhibitors; 0x enzyme values corresponded to 100% Activity (full inhibition), while 1x IDH1-R132H enzyme values were used to normalize 0%Activity (no inhibition). Concentration-response curves were fitted to the signals arising from the resulting fluorescence. The concentration-effect curves were then classified based on curve quality (r2), response magnitude and degree of measured activity, and compounds were subsequently categorized based on their curve class. […] Keywords: isocitrate dehydrogenase, IDH1, IDH1-R132H, MLSMR, MLPCN, NIH Roadmap, qHTS, NCGC
# % is scaled to controls: 0 for no effect and ±100 for the full control effect.
row,Structure (SMILES),"activity change, negative = inhibition"
1,Cc1c([N+](=O)[O-])cc([N+](=O)[O-])c(Br)c1[N+](=O)[O-],inactive: 0.295%
2,CCN(CC)CCCOC(=O)C(O)(c1ccccc1)C1CCCCC1 (stereo not given),inactive: 4.24%
3,CP(=O)(Nc1ccccc1)Oc1ccc(F)cc1 (stereo not given),inactive: 3.4%
4,CCCCCOc1ccc(NP(C)(=O)Oc2ccc(Cl)cc2Cl)cc1 (stereo not given),inactive: 2.18%
5,CCOC(=O)c1ccc(NP(C)(=O)Oc2ccc(F)cc2)cc1 (stereo not given),inactive: 0.505%
6,COc1ccc(OP(C)(=O)Nc2ccc(SC(F)(F)F)cc2)cc1 (stereo not given),inactive: 3.26%
7,O=C(OCCN1CCN(CCOCc2ccccc2)CC1)C(O)(c1ccccc1)c1ccccc1,inactive: 0.497%
8,CP(=O)(Nc1ccccc1F)Oc1ccccc1 (stereo not given),inactive: 0.551%
9,CC(C)c1ccc(OP(C)(=O)Nc2ccc(SC(F)(F)F)cc2)cc1 (stereo not given),inactive: 1.63%
10,CP(=O)(Nc1ccc2c(c1)OCCO2)Oc1ccccc1 (stereo not given),inactive: 1.18%
11,Cc1ccccc1NP(C)(=O)Nc1ccccc1C,inactive: 0.648%
12,CP(=O)(Nc1ccc(SC(F)(F)F)cc1)Oc1ccc(F)cc1 (stereo not given),inactive: 3.87%
13,CCOP(C)(=S)SCC(=O)NC(C)(CC)C(=O)O (stereo not given),inactive: -1.43%
14,O=[N+]([O-])c1ccc(OP2(=O)COCCO2)cc1 (stereo not given),inactive: -4.78%
15,Cc1cc(-c2cccc3ccccc23)c(C)cn1.O=[N+]([O-])c1cc([N+](=O)[O-])c(O)c([N+](=O)[O-])c1,inactive: 7%
16,Cc1c(C(c2ccc3c(c2)OCO3)c2c(C)n(C)n(-c3ccccc3)c2=O)c(=O)n(-c2ccccc2)n1C.O=[N+]([O-])c1cc([N+](=O)[O-])c(O)c([N+](=O)[O-])c1,inactive: 10.5%
17,COc1ccc(OP(C)(=O)Nc2cccc(Br)c2)cc1 (stereo not given),inactive: -1.56%
18,CN(C)CCOC(=O)C(O)(c1ccccc1)C1CCCCC1 (stereo not given),inactive: -1.19%
19,COc1ccc(NP(C)(=O)Oc2ccccc2OC)cc1 (stereo not given),inactive: -1.91%
20,Nc1ccc2c(ccc3cccnc32)n1.O=[N+]([O-])c1cc([N+](=O)[O-])c(O)c([N+](=O)[O-])c1,inactive: -1.03%
21,CCOC(=O)c1ccc(NP(C)(=O)Oc2ccc(Cl)cc2)cc1 (stereo not given),inactive: 2.91%
22,CP(=O)(OC12CC3CC(CC(C3)C1)C2)OC12CC3CC(CC(C3)C1)C2,inactive: 4.16%
23,COc1ccccc1OP(C)(=O)Nc1ccccc1Br (stereo not given),inactive: 2.55%
24,CC(C)(C)c1ccc(OP(C)(=O)O)cc1,inactive: -2.54%
25,CP(=O)(Nc1ccc(Cl)cc1)Oc1ccc(F)cc1 (stereo not given),inactive: 2.43%

# Reference: PubChem BioAssay AID602179 (National Center for Advancing Translational Sciences (NCATS), 2012)
